From patent US8637556B2, “Linked Myc-max small molecule inhibitors” (University of Pittsburgh—Of the Commonwealth System of …, priority 2009, dated 2014)

Protein sequences, listed by entry. Tags and fused reporters are not part of them. Residues count along the entry.
UniProt P01106, 368-452 limits assumed: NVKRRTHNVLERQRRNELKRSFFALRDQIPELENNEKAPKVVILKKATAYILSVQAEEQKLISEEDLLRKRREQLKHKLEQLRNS

What was measured:
[1] = target: c-Myc-Max heterodimer binding to E-Box DNA (Homo sapiens, UniProt P01106); test: Electrophoretic mobility shift assay (EMSA) of c-Myc-Max DNA binding; settings: c-Myc-Max dimer 1 μM, 10 nM E-Box DNA
[2] = target: c-Myc353-437 (monomeric c-Myc bHLH-ZIP) (Homo sapiens, UniProt P01106); test: Fluorescence polarization titration, c-Myc bHLH-ZIP binding; settings: for c-Myc binding affinity (in words): FP; for Kd: read-out: KD (c-Myc affinity, bivalent), Table 1, FP of nitrobenzofurazan moiety, c-Myc353-437
From the text: A c-Myc353-437 full-length bHLH-ZIP domain and its truncated version c-Myc390-439 were produced from the c-Myc/pET SKB3 construct, kindly supplied by Dr. S. K. Nair (University of Illinois, Urbana-Champaign), by insertion into the pET151D vector, encoding an N-terminal hexahistidine (6× His), separated by a TEV protease digestion site, with the TOPO® ligation system, and over-expressed in E. coli BL21DE3(pLysS). The 6× His tagged human Max isoform p21, with low homodimerization affinity^70, cloned into the pQE10 vector (Qiagen, Inc.), was over-expressed in E. coli M15(pRep4). Bacterial cultures were grown at 37° C. in LB medium to OD600≈0.8, then induced with 0.5 mM IPTG for 5 hours. Proteins were purified by Ni-agarose chromatography with a pH gradient elution. The 6× His tag of c-MYC353-437 and c-Myc390-439 was cleaved using TEV protease (the TEV protease was expressed in a pET24 vector [courtesy of S. K. Nair] and purified by Ni-agarose chromatography under native conditions). All the proteins were further purified by HPLC and lyophilized. Protein concentrations were determined by measurement of OD280. The synthetic peptide c-Myc363-381 is described in Follis, A. V., Hammoudeh, D. I., Wang, H., Prochownik, E & Metallo, S. J. Structural rationale for the coupled binding and unfolding of the c-Myc oncoprotein by small molecules. Chemistry & Biology 15, 1149-1155 (2008).
Samples were analyzed in a Photon Technology International QuantaMaster fluorimeter (Birmingham, N.J.) equipped with polymer sheet polarizers. Titration experiments were performed upon serial dilution of 1:1 equimolar solution of inhibitor and either c-Myc353-437, c-Myc390-439 or c-Myc363-381 in a 1×PBS buffer (137 mM NaCl, 2.7 mM KCl, 4.3 mM Na2HPO4, 1.4 mM KH2PO4, pH=7.4), 5% DMSO, over concentrations ranging between 200 μM and 1.5 nM. Excitation and emission wavelengths were independently determined for each inhibitor. Reported data represent the average of at least three independent experiments. […]
[formula] where [C]0 represents the total concentration of inhibitor and of c-Myc peptide. The value of KD was determined from the experimental polarization data by fitting to Eq. 2 using KaleidaGraph (Synergy Software, Reading, Pa.) where pol0 is the polarization in the absence of binding and Δpol is the total change in polarization (Park, S. H. & Raines, R. T. Fluorescence polarization assay to quantify protein-protein interactions. Methods in Molecular Biology 261, 161-6 (2004)).
[formula] Due to the very tight binding of some of the tested compounds, it was impossible to perform a full binding titration with an acceptable fluorescence intensity, therefore the polo parameter was experimentally determined from samples of each compound in the absence of c-Myc353-437 at a concentration of 25 μM. […]

[3] = test system: HL60 promyelocytic leukemia cells; test: HL60 cell growth inhibition (MTT assay); assay type: cell-based, human; settings: read-out: Growth inhibition HL60, Table 3, third day
[4] = test system: Daudi Burkitt lymphoma cells; test: Burkitt's lymphoma cell growth inhibition (MTT assay); assay type: cell-based, human; settings: read-out: Growth inhibition BL, Table 3, third day

Compound	Disruption of c-Myc-Max DNA (E-Box) binding [1]	c-Myc binding affinity (in words) [2]	Kd [2] [µM]	IC50 [3] [µM]	IC50 [4] [µM]
O=C1NC(=S)S/C1=C\c1ccc(C(=O)NCCCCCNC(=O)c2ccccc2Nc2ccc([N+](=O)[O-])c3nonc23)cc1	Strong disruption of DNA binding	–	–	–	–
CCc1ccc(/C=C2\SC(=O)N(CCCCCCNC(=O)c3ccc(Nc4ccc([N+](=O)[O-])c5nonc45)cc3)C2=O)cc1	Strong disruption of DNA binding	highest affinity	0.0006	7 to 9	2 to 4
O=C(CNC(=O)c1ccc(Nc2ccc([N+](=O)[O-])c3nonc23)cc1)NCCCCCNC(=O)c1ccc(/C=C2\SC(=S)NC2=O)cc1	–	considerably reduced binding affinity	–	–	–
CCc1ccc(/C=C2\SC(=O)N(CCCCCCNC(=O)CCCCCNC(=O)c3ccc(Nc4ccc([N+](=O)[O-])c5nonc45)cc3)C2=O)cc1	–	–	0.005	–	–
